These results are taken from paper PMC6868653 (Pharmacology Research & Perspectives, 2019).

For the test, the target named is human angiotensin AT1 (Homo sapiens, UniProt P30556). As to the kind of experiment: Angiotensin AT1 antagonist assay. It is filed as cell-based.

Regarding `CCCc1nc2c(C)cc(-c3nc4ccccc4n3C)cc2n1Cc1ccc(-c2ccccc2C(=O)O)cc1` [telmisartan], half-maximal inhibition (IC50) was put at 2.51 nM.
